From US20230312576A1, “4-(7H-PYRROLO[2,3-D]PYRIMIDIN-4-YL)-3,6-DIHYDROPYRIDINE-1-(2H)-CARBOXAMIDE DERIVATIVES AS LIMK AND/OR ROCK KINASES INHIBITORS FOR USE IN THE TREATMENT OF CANCER” (CENTRE NATIONAL DE LA RECHERCHE SCIENTIFIQUE, priority 2020, published 2023)

Sequences of proteins named here, by UniProt entry; tags and fusion partners are left off. A change or cut given only in a name is not applied to a line headed by its entry.
UniProt P53671: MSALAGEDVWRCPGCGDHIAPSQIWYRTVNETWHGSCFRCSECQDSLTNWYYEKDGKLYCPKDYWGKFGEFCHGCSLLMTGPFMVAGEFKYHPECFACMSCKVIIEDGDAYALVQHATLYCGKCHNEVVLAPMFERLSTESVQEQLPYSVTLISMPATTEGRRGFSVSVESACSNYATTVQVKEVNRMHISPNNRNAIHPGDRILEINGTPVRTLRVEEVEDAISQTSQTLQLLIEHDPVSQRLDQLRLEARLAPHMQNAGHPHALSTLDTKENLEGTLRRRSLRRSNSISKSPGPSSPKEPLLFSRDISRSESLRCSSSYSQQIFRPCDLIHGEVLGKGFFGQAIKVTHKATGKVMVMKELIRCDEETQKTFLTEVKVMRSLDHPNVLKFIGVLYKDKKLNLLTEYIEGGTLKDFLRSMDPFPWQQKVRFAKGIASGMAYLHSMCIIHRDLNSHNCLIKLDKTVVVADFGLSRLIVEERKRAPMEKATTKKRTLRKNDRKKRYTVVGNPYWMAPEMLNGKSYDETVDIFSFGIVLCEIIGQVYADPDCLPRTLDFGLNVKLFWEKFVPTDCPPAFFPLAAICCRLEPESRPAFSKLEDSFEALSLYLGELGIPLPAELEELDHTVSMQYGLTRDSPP
UniProt P53667: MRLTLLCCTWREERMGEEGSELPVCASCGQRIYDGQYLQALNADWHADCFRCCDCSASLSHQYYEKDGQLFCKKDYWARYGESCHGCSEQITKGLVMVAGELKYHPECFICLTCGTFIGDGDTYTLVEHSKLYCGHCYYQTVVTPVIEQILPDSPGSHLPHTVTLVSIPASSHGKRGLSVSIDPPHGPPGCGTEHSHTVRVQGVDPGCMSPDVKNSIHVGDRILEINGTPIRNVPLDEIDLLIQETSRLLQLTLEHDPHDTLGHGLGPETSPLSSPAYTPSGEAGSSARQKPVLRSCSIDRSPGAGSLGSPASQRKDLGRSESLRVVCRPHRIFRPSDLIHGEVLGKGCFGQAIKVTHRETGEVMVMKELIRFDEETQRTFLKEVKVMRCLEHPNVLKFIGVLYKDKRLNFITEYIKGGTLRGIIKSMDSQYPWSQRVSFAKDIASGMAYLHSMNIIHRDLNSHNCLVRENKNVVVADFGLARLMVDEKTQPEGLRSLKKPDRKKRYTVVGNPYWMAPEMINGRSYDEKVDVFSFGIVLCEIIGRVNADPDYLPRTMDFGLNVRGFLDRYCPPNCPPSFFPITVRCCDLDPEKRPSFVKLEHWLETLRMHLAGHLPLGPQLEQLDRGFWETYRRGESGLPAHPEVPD

Tests used:
[1] = target: LIMK2 (Homo sapiens (Human), UniProt P53671); assay: Lanthascreen Eu binding assay (TR-FRET), inhibition of LIMK2
[2] = target: LIMK1 (Homo sapiens (Human), UniProt P53667); assay: Lanthascreen Eu binding assay (TR-FRET), inhibition of LIMK1

Row | SMILES | Ki ([1]; Lanthascreen Eu binding assay) [µM] | Ki [1] [µM] | Ki [2] [µM]
1 | Cc1c[nH]c2ncnc(C3=CC(C)N(C(=O)Nc4cccc(Cl)c4)C(C)C3)c12 (stereo not drawn) | 0.0725 | – | –
2 | Cc1c[nH]c2ncnc(C3=CC(C)N(C(=O)Nc4cccc(Br)c4)C(C)C3)c12 (stereo not drawn) | – | 0.0627 | 0.024

Read-outs that look alike come from different tables or passages of the source.
